Where only a bound is given, the exact number is not on record here.

Chains of the proteins cited; added tags and fusions are not shown. Residues count along the entry.
UniProt O60674, 828-1132: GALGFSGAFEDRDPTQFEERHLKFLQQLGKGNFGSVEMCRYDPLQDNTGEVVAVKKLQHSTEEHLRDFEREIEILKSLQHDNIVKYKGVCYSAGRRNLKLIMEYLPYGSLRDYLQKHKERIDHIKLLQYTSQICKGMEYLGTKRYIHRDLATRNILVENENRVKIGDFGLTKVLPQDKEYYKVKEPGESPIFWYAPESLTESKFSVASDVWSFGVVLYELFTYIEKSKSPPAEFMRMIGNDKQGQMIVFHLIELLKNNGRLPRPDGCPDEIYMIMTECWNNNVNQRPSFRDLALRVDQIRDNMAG

For orientation: IC50 means the concentration that gives 50% inhibition. Lower therefore signals higher potency.

In one assay the target is human JAK1 (Homo sapiens, UniProt P23458). As to the kind of experiment: JAK inhibitory activity assay (JAK1). The assay is classed as biochemical.
The next assay concerns the target JAK2 (Homo sapiens (Human), UniProt O60674). Put plainly: JAK inhibitory activity assay (JAK2). The assay is classed as biochemical.

As to `CNCc1ccc(-n2cc(-c3nc(NC4CCN(S(C)(=O)=O)CC4)ncc3C#N)cn2)c(Cl)c1` [Example 113, 4-(1-(2-Chloro-4-((methylamino)methyl)phenyl)-1H-pyrazol-4-yl)-2-((1-(methylsulfonyl)piperidin-4-yl)amino)pyrimidine-5-carbonitrile], the IC50 against human JAK1 and against JAK2 was no less than 10 µM in each case.

For the compound `[2H]C([2H])([2H])NCc1ccc(-n2cc(-c3nc(NC4CCN(S(C)(=O)=O)CC4)ncc3C#N)cn2)c(Cl)c1` [Example 138, 4-(1-(2-Chloro-4-(((methyl-d3)amino)methyl)phenyl)-1H-pyrazol-4-yl)-2-((1-(methylsulfonyl)piperidin-4-yl)amino)pyrimidine-5-carbonitrile], the IC50 on human JAK1 was no less than 10 µM.

Values taken from patent US11472791B2 (dated 2022).
